In patent US8604207B2, “Nitrogenous heterocyclic derivative and medicine containing the same as an active ingredient” (Ono Pharmaceutical Co., Ltd., priority 2004, dated 2013):
This is a selection: effects in other tests are not listed, and their absence says nothing.

Tests used:
[1] = Measurement of bioavailability (BA); conditions: cynomolgus monkey, oral 3 mg/kg vs intravenous 1 mg/kg
Experimental: The test compound was weighed, and dissolved in 30% HP-β-CD (Trademark; Mitsubishi Corporation) to make 1 mg/mL solution for intravenous administration. The test compound was weighed, and dissolved in Soltol (Trademark; BASF Takeda Vitamins Ltd.)/propylene glycol=7/3 heated to 50° C. to be 5 mg/mL solution thereof. Equal amount of each five samples were weighed, mixed, and then diluted with distilled water for injection by five times to make a solution for oral administration. The solution for intravenous administration (1 mg/kg) was administered to cynomolgus monkey (male, Hamri Co., Ltd) via superficial cephalic vein by single intravenous dose (n=3). The solution for oral administration (3 mg/kg) was forced intragastric administering to cynomolgus monkey (male, Hamri Co., Ltd) with sonde (n=3). The administering was done in the fasting state but they have freedom to drink water. […] The residue was redissolved in 100 μL of mobile phase A, and then 40 μL of the resulting solution was analyzed by LC/MS/MS […]
(§1) Transition of plasma concentration of the test compound in monkey was analyzed with non-compartment analytic method using WinNonlin 4.0.1 (Pharsight), and AUC was calculated.
BA was calculated by the following calculation formula. […]

[2] = Pharmacokinetics test in blood in monkey; conditions: cynomolgus monkey, oral administration 1 mg/kg, mixed solution of five test compounds, plasma
Experimental: Each of five test compounds were weighed, and dissolved in Soltol (Trademark; BASF Takeda Vitamins Ltd.)/propylene glycol=7/3 heated to 50° C. to be 5 mg/mL solution thereof. Equal amount of each five samples were weighed, mixed, and then diluted with distilled water for injection by five times to make a solution for oral administration. The solution for oral administration (1 mg/kg) was forced intragastric administering to cynomolgus monkey (male, Hamri Co., Ltd) with sonde (n=3). The administering was done in the fasting state but they have freedom to drink water. Each 1 mL of blood samples were collected from superficial cephalic vein, using a heparinized syringe, 5, 15, 30 minutes, 1, 2, 4, 6, 8 and 24 hours after administration. Collected samples were stored into ice, centrifuged at 3000 rpm for 15 minutes to get plasma. The plasma was stored at −20° C. The plasma sample stored at −20° C. was dissolved, then 100 μL of the resulting solution was added by internal standard solution and acetonitrile (2 mL), agitated, centrifuged at 3000 rpm for 10 minutes. […] The residue was redissolved in 100 μL of mobile phase A, and then 40 μL of the resulting solution was analyzed by LC/MS/MS […]
as §1

SMILES	BA [1] [%]	AUC [2] [ng·h/mL]
CS(=O)(=O)c1ccc(Oc2ccc(CN3CCC(N(C(=O)Nc4ccc(F)cc4)c4ccccc4)CC3)cn2)cc1	42	226
Cc1ccc(NC(=O)N(c2ccccc2)C2CCN(Cc3ccc(Oc4ccc(NS(C)(=O)=O)cc4)nc3)CC2)cn1		1150
